Values of other authors as cited in publication PMC9469208 (Journal of Medicinal Chemistry, 2022).

Test system: motor coordination of mice
Settings: mouse, in vivo, ip; cited from earlier work

CC[C@@H](C(N)=O)N1CCCC1=O [LEV, levetiracetam]
TD50 (rotarod): >500 mg/kg
